# Reference: PubChem BioAssay AID485346 (Sanford-Burnham Center for Chemical Genomics, 2010)
# By UniProt entry, the sequences of proteins in these tests, tags left out.
# UniProt O15151, whole entry, looked up: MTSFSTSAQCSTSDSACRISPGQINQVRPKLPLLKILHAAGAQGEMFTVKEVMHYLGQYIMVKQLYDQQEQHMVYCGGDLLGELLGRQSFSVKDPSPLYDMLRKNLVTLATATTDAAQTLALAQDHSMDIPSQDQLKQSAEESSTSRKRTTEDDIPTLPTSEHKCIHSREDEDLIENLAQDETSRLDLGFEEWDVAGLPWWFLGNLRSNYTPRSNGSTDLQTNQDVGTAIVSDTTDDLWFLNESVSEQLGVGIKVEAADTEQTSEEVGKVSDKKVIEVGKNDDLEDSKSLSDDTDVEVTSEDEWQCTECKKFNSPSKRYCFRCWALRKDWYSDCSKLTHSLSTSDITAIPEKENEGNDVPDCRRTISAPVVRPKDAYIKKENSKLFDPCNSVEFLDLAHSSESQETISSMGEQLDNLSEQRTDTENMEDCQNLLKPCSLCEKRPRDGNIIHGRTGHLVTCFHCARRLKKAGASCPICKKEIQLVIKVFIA
# UniProt Q00987, whole entry, looked up: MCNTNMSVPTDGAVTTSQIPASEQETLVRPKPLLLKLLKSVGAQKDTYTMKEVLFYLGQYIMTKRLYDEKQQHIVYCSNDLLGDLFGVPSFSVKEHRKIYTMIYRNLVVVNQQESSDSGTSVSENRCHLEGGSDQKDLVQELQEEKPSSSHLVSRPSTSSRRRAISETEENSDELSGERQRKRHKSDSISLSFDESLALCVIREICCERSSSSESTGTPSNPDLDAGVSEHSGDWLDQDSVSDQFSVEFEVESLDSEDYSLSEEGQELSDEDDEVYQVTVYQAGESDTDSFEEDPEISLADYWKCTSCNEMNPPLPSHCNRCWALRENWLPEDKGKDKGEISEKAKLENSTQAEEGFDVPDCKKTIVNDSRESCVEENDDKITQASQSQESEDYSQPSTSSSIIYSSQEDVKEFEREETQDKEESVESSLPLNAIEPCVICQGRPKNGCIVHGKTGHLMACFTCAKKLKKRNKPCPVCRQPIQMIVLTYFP
# Only a part is listed here, and it is no random draw. Some salts and complexes are drawn in separate pieces, as the source files them; their charges need not balance. Active and inactive are the calls of the source.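 How the source made its calls: active means inhibition of at least 50% at 8 µM in the primary screen; inactive means the rest.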
# Biological target: Protein Mdm4 (Homo sapiens) + E3 ubiquitin-protein ligase Mdm2 (Homo sapiens) (UniProt O15151+Q00987)
# Assay: disruptors of Mdm2/MdmX RING complex – cell-based, luminescence, split luciferase, SaOS-2, uHTS, primary screen (AID 485346)
# Details: SaOS-2 split-luciferase Mdm2/MdmX complementation, at 8 µM, hits give high values
row,SMILES,inhibition
1,COc1ccccc1OP(C)(=O)Nc1ccccc1 (stereo not given),inactive: 3.51%
2,CP(=O)(Nc1ccccc1Br)Oc1ccccc1 (stereo not given),inactive: -4.9%
3,CP(=S)(Nn1cnnc1)Oc1ccccc1 (stereo not given),inactive: -5.12%
4,CP(=O)(Nc1ccccn1)Oc1ccc(Cl)cc1 (stereo not given),inactive: -29.3%
5,CCOP(C)(=S)SCC(=O)NC(C)C(=O)O (stereo not given),inactive: 7.58%
6,CCOC(=O)c1ccc(NP(C)(=O)Oc2ccc(OC)cc2)cc1 (stereo not given),inactive: 6.41%
7,O=[N+]([O-])c1cc([N+](=O)[O-])c(O)c([N+](=O)[O-])c1.c1ccc(Oc2ccncc2)cc1,inactive: -3.79%
8,CCc1ccc(OP(C)(=O)N2CCN(c3ccc([N+](=O)[O-])cc3)CC2)cc1 (stereo not given),inactive: -12.1%
9,CP(=O)(NC(=O)Nc1ccccc1)Oc1ccccc1 (stereo not given),inactive: -4.63%
10,Cc1cc(C)cc(OP(C)(=O)Nc2ccc(SC(F)(F)F)cc2)c1 (stereo not given),inactive: 34.7%
11,Cc1cccc(C)c1OP(C)(=O)Nc1ccc(SC(F)(F)F)cc1 (stereo not given),inactive: 7.67%
12,CP(=O)(Nc1ccc(SC(F)(F)F)cc1)Oc1ccc(Cl)cc1 (stereo not given),inactive: 13.1%
13,CP(=O)(Oc1ccccc1)OC(c1ccccc1)C(F)(F)F (stereo not given),inactive: 11.8%
14,CCN(CC)CCCOC(=O)C(O)(c1ccccc1)c1ccccc1,inactive: -18.9%
15,COc1ccccc1OP(C)(=O)Nc1cc(Cl)ccc1C (stereo not given),inactive: -4.24%
16,COc1ccc(OP(C)(=O)Nc2cccc(F)c2)cc1 (stereo not given),inactive: 12.3%
17,Cc1cc(C)cc(OP(C)(N)=O)c1 (stereo not given),inactive: 2.69%
18,CCOC(=O)c1ccc(NP(C)(=O)Oc2ccccc2)cc1 (stereo not given),inactive: 24%
19,COc1ccccc1OP(C)(=O)Nc1ccc(C)cc1 (stereo not given),inactive: -19%
20,Cc1ccc(NP(C)(=O)Oc2ccccc2)c(C)c1 (stereo not given),inactive: -13.8%
21,CC(C)(C)c1ccc(OP(C)(=O)Nc2ccc(SC(F)(F)F)cc2)cc1 (stereo not given),inactive: -6.38%
22,Cc1cccc(C)c1OP(C)(N)=O (stereo not given),inactive: -3.75%
23,O=[N+]([O-])c1cc([N+](=O)[O-])c(Nc2cccnc2)c([N+](=O)[O-])c1,inactive: 38.3%
24,CC1=NCCc2c1[nH]c1ccccc21.O=[N+]([O-])c1cc([N+](=O)[O-])c(O)c([N+](=O)[O-])c1,inactive: 5.96%
25,O=C(O)c1cccc(Nc2c([N+](=O)[O-])cc([N+](=O)[O-])cc2[N+](=O)[O-])c1,inactive: 1.34%
26,CP(=O)(Nc1cccc(Br)c1)Oc1ccccc1 (stereo not given),inactive: 3.86%
27,Cc1cc(C)cc(OP(C)(=O)Nc2ccccn2)c1 (stereo not given),inactive: 4.37%
28,Cc1ccc(C)c(NP(C)(=O)Oc2ccccc2)c1 (stereo not given),inactive: -9.47%

row,SMILES,inhibition
1,Cc1cc(C)cc(OP(C)(=O)Nc2ccc(C)cc2C)c1 (stereo not given),inactive: 10.5%
2,CCOC(=O)c1ccc(NP(C)(=O)Oc2cc(C)cc(C)c2)cc1 (stereo not given),inactive: 10.5%
3,COc1ccccc1OP(C)(=O)Nc1cccc(Br)c1 (stereo not given),inactive: -7.19%
4,Cc1nc2ccc3ccccc3c2s1.O=[N+]([O-])c1cc([N+](=O)[O-])c(O)c([N+](=O)[O-])c1,inactive: -6.95%
5,O=[N+]([O-])c1cc([N+](=O)[O-])c(-c2cnn(-c3ccccc3)c2)c([N+](=O)[O-])c1,inactive: 17.6%
6,O=[N+]([O-])c1cc([N+](=O)[O-])c(-n2nnc3ccccc32)c([N+](=O)[O-])c1,inactive: 0.147%
7,CP(=O)(Nc1ccc(SC(F)(F)F)cc1)Oc1ccccc1 (stereo not given),inactive: 17.4%
8,CCCOc1ccc(NP(C)(=O)Oc2ccc(Cl)cc2)cc1 (stereo not given),inactive: 10.8%
9,COc1ccccc1OP(C)(=O)Nc1c(C)cccc1C (stereo not given),inactive: 9.23%
10,O=[N+]([O-])c1cc([N+](=O)[O-])c(Nc2nnnn2CCO)c([N+](=O)[O-])c1,inactive: 16.3%
11,CC1=C2N=C(C=C3N=C(C(C)=C4[N-][C@@](C)([C@@H]5N=C1[C@](C)(CCC(=O)NC[C@@H](C)OP(=O)([O-])O[C@H]1[C@@H](O)[C@@H](n6cnc7cc(C)c(C)cc76)O[C@@H]1CO)[C@H]5CC(N)=O)[C@@](C)(CC(N)=O)[C@@H]4CCC(N)=O)[C@@](C)(CC(N)=O)[C@@H]3CCC(N)=O)C(C)(C)[C@@H]2CCC(N)=O.[C-]#N.[Co+3],inactive: 35.4%
12,CCOC(=O)C(CC)C1=NC(C)(C)Cc2ccccc21.O=[N+]([O-])c1cc([N+](=O)[O-])c(O)c([N+](=O)[O-])c1 (stereo not given),inactive: 2.68%
13,O=[N+]([O-])c1cc([N+](=O)[O-])c(NCC2CCS(=O)(=O)C2)c([N+](=O)[O-])c1 (stereo not given),inactive: -6.9%
14,COc1ccc(NP(C)(=O)Oc2ccccc2OC)cc1 (stereo not given),inactive: 15.3%
15,CN(C)CCOC(=O)C(O)(c1ccccc1)C1CCCCC1 (stereo not given),inactive: 8.87%
16,COc1ccc(OP(C)(=O)Nc2cccc(Br)c2)cc1 (stereo not given),inactive: 1.37%
17,Cc1ccccc1NP(C)(=O)Nc1ccccc1C,inactive: -10.9%
18,CP(=O)(Nc1ccc2c(c1)OCCO2)Oc1ccccc1 (stereo not given),inactive: 21.6%
19,CCOP(C)(=S)SCC(=O)NC(C)(CC)C(=O)O (stereo not given),inactive: 4.24%
20,CP(=O)(Nc1ccc(SC(F)(F)F)cc1)Oc1ccc(F)cc1 (stereo not given),inactive: 23.6%
21,COc1ccc2c(c1O)-c1c(O)c(OC)cc3c1[C@H](C2)[N+](C)(C)CC3.O=[N+]([O-])c1cc([N+](=O)[O-])c([O-])c([N+](=O)[O-])c1[O-],inactive: -6.26%
22,O=C(OCCN1CCN(CCOCc2ccccc2)CC1)C(O)(c1ccccc1)c1ccccc1,inactive: -25.9%
23,O=C(OC1CN2CCC1CC2)c1ccc([N+](=O)[O-])cc1 (stereo not given),inactive: 5.4%
24,CC(C)c1ccc(OP(C)(=O)Nc2ccc(SC(F)(F)F)cc2)cc1 (stereo not given),inactive: -29.8%
25,CP(=O)(Nc1ccccc1F)Oc1ccccc1 (stereo not given),inactive: -0.838%
26,O=[N+]([O-])c1cc([N+](=O)[O-])c(OC2CCCCC2O)c([N+](=O)[O-])c1 (stereo not given),inactive: -19.9%
27,CCCCCOc1ccc(NP(C)(=O)Oc2ccc(Cl)cc2Cl)cc1 (stereo not given),inactive: 5.45%
